High-throughput results: PubChem BioAssay, National Center for Advancing Translational Sciences (NCATS)
G9a block: blocks human histone lysine methyltransferase G9a; Q96KQ7; Potency, µM (highest dose often 102 µM), most hits filed as inhibitors; G9a H3K9 monomethylation, AlphaScreen, 2 h; 350,000 tested, 8.8% active; also: nearly all actives have a fitted effect of over 75% in size
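Chemiluminescent proximity detection of H3K9 monomethylation, read after 10 min bead incubation in the dark. Reaction: 20 nM G9a, 500 nM biotin-H3K9 peptide, 20 uM SAM cofactor, 2 h, room temperature, following 15 min enzyme-compound preincubation.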
KDM4E inh: JMJD2E (human) inhibition; 230,000 tested, 1.6% active; B2RXH2; AID 2147; Potency, µM (titrated, usually from 57.1 µM), hits mostly inhibitors; JMJD2E catalytic domain, FDH-coupled NADH fluorescence (FDH is formaldehyde dehydrogenase); also: nearly all actives have a fitted effect of over 50% in size
Sfp PPTase inh: Sfp phosphopantetheinyl transferase inhibition. Biochemical Sfp PPTase activity, qHTS. 310,000 tested, 3.5% active. Potency, µM, most hits filed as inhibitors. Q9F4F7;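 also: the enzyme is Sfp with the accession as filed and its product quenches rhodamine fluorescence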
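After 15 min at room temperature with compound, 15 nM Sfp received 5 uM rhodamine-CoA plus 12.5 uM BHQ-2-ybbR (50 mM Hepes pH 7.6, 10 mM MgCl2). Rate came from the fluorescence difference over 30 min, ex 525/em 598 nm.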
ALDH1A1 block: inhibitors of human aldehyde dehydrogenase 1A1; P00352; Purified ALDH1A1, NADH fluorescence, propionaldehyde substrate; Potency, µM (top dose mostly 75.3 µM), most hits filed as inhibitors; 220,000 tested, 7.3% active; active = well fitted inhibition curve with a large enough effect, not every such curve was filed as active; inconclusive = small, poorly fitted or top-dose-only effect, or another doubt; inactive = no such curve, though single readings can be large or run the other way
miR-21 reporter: miR-21 reporter, rising signal; Potency, µM (titrated, usually from 38.3 µM); AID 2288; 340,000 tested, under 10 active; HeLa miR-21 FLuc reporter, luciferase, 48 h; active = well fitted rising curve with a large enough effect; inconclusive = small, poorly fitted or top-dose-only effect; inactive = no such curve, though single readings can be large or run the other way;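 note: miR-21 action dims this reporter so a rising signal means less miR-21 action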
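Using DMEM plus 10% FBS, HeLa miR-21-FLuc cells are incubated with test compounds (final up to about 40uM) for 48 hours; firefly luciferase signal is then imaged following reagent-mediated lysis.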
Lamin A splicing: LMNA splicing modulation; HeLa LMNA splicing GFP/RFP minigene ratio, 48 h; Potency, µM (titrated, usually from 46.1 µM), most hits filed as inhibitors; 200,000 tested, 0.01% active; active = well fitted inhibition curve with a large enough effect in the signal ratio, with a control signal flat, not every such curve was filed as active; inconclusive = small, poorly fitted or top-dose-only effect, or effect the other way, or a change in a side signal; the % refers to the signal ratio
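Read-out is the ratio of GFP to DsRed2 object intensity, acquired by 488 nm laser-scanning cytometry on HeLa lamin A-EGFP minigene reporter cells. Compound incubation 48 hrs at 37 °C in Opti-MEM with 2% FBS; DMSO 0.5% final.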
Numbers stand for hits; [ ] = dose if it differs, or a comment. The list is not random: actives were taken first. Their share in the collection is about 13%. Unless noted, calls follow the shape of the dose curve; as a rule, active = well fitted curve in the direction sought with a large enough effect; inconclusive = small, poorly fitted or top-dose-only effect, or another doubt; inactive = no such curve, though single readings can be large; an effect the other way counts as inactive or inconclusive.

CCOC(=O)c1c(S(=O)(=O)N(C)C2CCCCC2)c(C)n(C)c1C was read as G9a block inactive, Sfp PPTase inh inactive and miR-21 reporter inactive.
Screening CCOc1ccc(N2CC(C(=O)Nc3nnc(SCCOC)s3)CC2=O)cc1 (stereo not given) returned G9a block 71µM, Sfp PPTase inh inactive and miR-21 reporter inactive.
CCOc1ccc(N2CC(C(=O)NCCc3ccc(S(N)(=O)=O)cc3)CC2=O)cc1 (stereo not given) was read as G9a block 25µM, Sfp PPTase inh inactive and miR-21 reporter inactive.
For CCc1ccc(N2CC(c3nnc(NC(=O)c4ccco4)s3)CC2=O)cc1 (stereo not given) the results were G9a block 14µM, miR-21 reporter inactive and Lamin A splicing inactive.
CCOc1ccc(N2CC(C(=O)Nc3nnc(CC)s3)CC2=O)cc1 (stereo not given) was read as G9a block inconclusive, Sfp PPTase inh 56µM and miR-21 reporter inactive.
CCOCCc1nnc(NC(=O)C2CC(=O)N(c3ccc(OCC)cc3)C2)s1 (stereo not given) was read as G9a block inactive, Sfp PPTase inh inactive and miR-21 reporter inactive.
Screening Cc1ccc(Cl)cc1NC(=O)Cn1nc2c(cc1=O)CC(C)CC2 (stereo not given) returned G9a block inactive, miR-21 reporter inactive and Lamin A splicing inactive.
`COc1cc(NC(=O)CCn2nc(C)c(S(=O)(=O)N3CCCCC3)c2C)cc(OC)c1OC` gave G9a block inactive[12.7 µM], miR-21 reporter inactive and Lamin A splicing inactive.
Screening Cn1c(=O)c2c(SCC(=O)NCc3ccco3)nc(-c3ccccc3)nc2n(C)c1=O returned G9a block inactive, miR-21 reporter inactive and Lamin A splicing inconclusive.
CCCCc1nnc(NC(=O)C2CC(=O)N(c3ccc(C)cc3)C2)s1 (stereo not given) was read as G9a block inconclusive, KDM4E inh inactive, Sfp PPTase inh inactive, ALDH1A1 block inactive, miR-21 reporter inactive and Lamin A splicing inconclusive.
Screening CCc1nnc(NC(=O)C2CC(=O)N(c3ccc(C)cc3)C2)s1 (stereo not given) returned G9a block inconclusive, KDM4E inh inactive, Sfp PPTase inh 50µM, ALDH1A1 block inactive, miR-21 reporter inactive and Lamin A splicing inactive.
Screening Cc1ccc(N2CC(C(=O)Nc3nccs3)CC2=O)cc1Cl (stereo not given) returned G9a block inactive[12.7 µM], KDM4E inh inactive, Sfp PPTase inh inactive, ALDH1A1 block inactive, miR-21 reporter inactive and Lamin A splicing inactive.
COCc1nnc(NC(=O)C2CC(=O)N(c3ccc(C)c(Cl)c3)C2)s1 (stereo not given) was read as G9a block 16µM.
Screening O=C(O)CNC(=O)c1ccc([N+](=O)[O-])cc1 returned ALDH1A1 block inactive.
`COc1ccc(C2CC(c3ccc4ccccc4c3)=NN2C(=O)CN2C(=O)CCC2=O)cc1` (stereo not given) gave G9a block inactive, KDM4E inh inconclusive, Sfp PPTase inh inactive, ALDH1A1 block inconclusive, miR-21 reporter inactive and Lamin A splicing inconclusive.
`COc1ccc(C2=NN(CN3C(=O)C(=O)c4ccccc43)C(c3ccc(Br)cc3)C2)cc1` (stereo not given) gave G9a block inconclusive, KDM4E inh inactive, Sfp PPTase inh inactive, ALDH1A1 block 0.28µM, miR-21 reporter inactive and Lamin A splicing inactive.
Screening COc1ccc(C2=NN(CN3C(=O)C(=O)c4ccccc43)C(c3ccc(C)cc3)C2)cc1 (stereo not given) returned G9a block inconclusive, KDM4E inh inactive, Sfp PPTase inh inactive, ALDH1A1 block 0.56µM, miR-21 reporter inactive and Lamin A splicing inactive.
For Cc1cc(=O)oc2cc(OC3C=CC(C#CC(C)(C)C)OC3CO)ccc12 (stereo not given) the results were Sfp PPTase inh inactive and ALDH1A1 block inactive[13.5 µM].
Screening COc1ccc(Cn2c(CNS(=O)(=O)c3ccc(Cl)s3)nc3cccnc32)cc1 returned G9a block inactive, miR-21 reporter inactive and Lamin A splicing inconclusive.
For O=C(c1ccc(Br)s1)N(Cc1cccnc1)c1nc2ccc(F)cc2s1 the results were G9a block inconclusive, miR-21 reporter inactive and Lamin A splicing inconclusive.
